Test results: PubChem BioAssay AID2740 (NMMLSC, 2010)

Tested on: S. cerevisiae RPL19A-GFP strain, flow cytometry fluorescence, 3 h
Assay: TOR pathway RPL19A-GFP modulators, concentration series – cell-based, S. cerevisiae, flow cytometry, MLPCN hits, dose response (AID 2740)

| EC50 [µM] | Compound |
| --- | --- |
| 0.825 | Cc1ccc(-c2nn(C(C)(C)C)c3ncnc(N)c23)cc1 |
| 1.28 | CC(C)(C)n1nc(-c2ccc(Cl)cc2)c2c(N)ncnc21 |
